CycPeptMPDB entries from one study

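The data file gives no further conditions (lipid, pH, time, direction or concentration), and values from different papers need not be comparable. Other peptides of the study may be missing here. Peptides that the database sets to -10, its floor, are left out.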

PAMPA is the parallel artificial membrane permeability assay, which has no cells and reads passive diffusion. Values are log10 P with P in cm/s, so -5 is more permeable than -7.

- CC(=O)N1CCC[C@@H]1C(=O)N(C)[C@@H](CC(C)C)C(=O)N[C@@H]1C(=O)N(C)[C@@H](CC(C)C)C(=O)N[C@@H](CC(C)C)C(=O)N[C@H](CC(C)C)C(=O)N(C)[C@@H](C)C(=O)N[C@@H](CC(C)C)C(=O)N2CCC[C@H]2C(=O)O[C@@H]1C: PAMPA -5.41 (log10 cm/s)
- CC(=O)N1CCC[C@H]1C(=O)N(C)[C@@H](CC(C)C)C(=O)N[C@@H]1C(=O)N[C@@H](CC(C)C)C(=O)N[C@@H](CC(C)C)C(=O)N(C)[C@H](CC(C)C)C(=O)N(C)[C@@H](C)C(=O)N[C@@H](CC(C)C)C(=O)N2CCC[C@H]2C(=O)O[C@@H]1C: PAMPA -5.94 (log10 cm/s)
- CC(=O)N1CCC[C@H]1C(=O)N(C)[C@H](CC(C)C)C(=O)N[C@@H]1C(=O)N(C)[C@@H](CC(C)C)C(=O)N[C@@H](CC(C)C)C(=O)N[C@@H](CC(C)C)C(=O)N(C)[C@@H](C)C(=O)N[C@@H](CC(C)C)C(=O)N2CCC[C@@H]2C(=O)O[C@@H]1C: PAMPA -6.23 (log10 cm/s)
- CC(=O)N1CCC[C@H]1C(=O)N[C@@H]1C(=O)N[C@H](CC(C)C)C(=O)N[C@H](CC(C)C)C(=O)N[C@H](CC(C)C)C(=O)N[C@@H](CC(C)C)C(=O)N[C@@H](C)C(=O)N[C@@H](CC(C)C)C(=O)N2CCC[C@@H]2C(=O)O[C@@H]1C: PAMPA -6.65 (log10 cm/s)
- CC(=O)N1CCC[C@H]1C(=O)N(C)[C@H](CC(C)C)C(=O)N[C@@H]1C(=O)N[C@@H](CC(C)C)C(=O)N[C@H](CC(C)C)C(=O)N[C@H](CC(C)C)C(=O)N[C@H](C)C(=O)N[C@@H](CC(C)C)C(=O)N2CCC[C@@H]2C(=O)O[C@@H]1C: PAMPA -6.72 (log10 cm/s)
- CC(=O)N1CCC[C@H]1C(=O)N(C)[C@H](CC(C)C)C(=O)N[C@@H]1C(=O)N[C@@H](CC(C)C)C(=O)N(C)[C@@H](CC(C)C)C(=O)N(C)[C@H](CC(C)C)C(=O)N(C)[C@@H](C)C(=O)N[C@@H](CC(C)C)C(=O)N2CCC[C@@H]2C(=O)O[C@@H]1C: PAMPA -5.32 (log10 cm/s)
- CC(=O)N1CCC[C@H]1C(=O)N[C@@H]1C(=O)N[C@H](CC(C)C)C(=O)N(C)[C@H](CC(C)C)C(=O)N(C)[C@@H](CC(C)C)C(=O)N(C)[C@H](CC(C)C)C(=O)N(C)[C@@H](C)C(=O)N[C@@H](CC(C)C)C(=O)N2CCC[C@@H]2C(=O)O[C@@H]1C: PAMPA -4.99 (log10 cm/s)
- CC(=O)N1CCC[C@H]1C(=O)N[C@@H]1C(=O)N(C)[C@H](CC(C)C)C(=O)N(C)[C@@H](CC(C)C)C(=O)N(C)[C@H](CC(C)C)C(=O)N(C)[C@H](CC(C)C)C(=O)N(C)[C@H](C)C(=O)N[C@@H](CC(C)C)C(=O)N2CCC[C@@H]2C(=O)O[C@@H]1C: PAMPA -5.32 (log10 cm/s)
- CC(=O)N[C@@H]1C(=O)N2CCC[C@H]2C(=O)N(C)[C@H](CC(C)C)C(=O)N(C)[C@@H](CC(C)C)C(=O)N[C@H](CC(C)C)C(=O)N(C)[C@@H](CC(C)C)C(=O)N[C@H](C)C(=O)N[C@@H](CC(C)C)C(=O)N2CCC[C@@H]2C(=O)O[C@@H]1C: PAMPA -5.54 (log10 cm/s)
- CC(=O)N1CCC[C@H]1C(=O)N[C@@H]1C(=O)N(C)[C@H](CC(C)C)C(=O)N[C@H](CC(C)C)C(=O)N[C@H](CC(C)C)C(=O)N[C@@H](CC(C)C)C(=O)N[C@H](C)C(=O)N[C@@H](CC(C)C)C(=O)N2CCC[C@@H]2C(=O)O[C@@H]1C: PAMPA -6.67 (log10 cm/s)
- CC(=O)N1CCC[C@@H]1C(=O)N(C)[C@@H](CC(C)C)C(=O)N[C@@H]1C(=O)N[C@@H](CC(C)C)C(=O)N(C)[C@H](CC(C)C)C(=O)N[C@@H](CC(C)C)C(=O)N(C)[C@H](C)C(=O)N[C@H](CC(C)C)C(=O)N2CCC[C@@H]2C(=O)O[C@@H]1C: PAMPA -5.19 (log10 cm/s)
- CC(=O)N1CCC[C@H]1C(=O)N(C)[C@H](CC(C)C)C(=O)N[C@@H]1C(=O)N(C)[C@H](CC(C)C)C(=O)N[C@H](CC(C)C)C(=O)N[C@H](CC(C)C)C(=O)N(C)[C@H](C)C(=O)N[C@H](CC(C)C)C(=O)N2CCC[C@@H]2C(=O)O[C@@H]1C: PAMPA -6.45 (log10 cm/s)

The 2 highest values of PAMPA among the entries above:

| compound | PAMPA (log10 cm/s) |
|---|---|
| CC(=O)N1CCC[C@H]1C(=O)N[C@@H]1C(=O)N[C@H](CC(C)C)C(=O)N(C)[C@H](CC(C)C)C(=O)N(C)[C@@H](CC(C)C)C(=O)N(C)[C@H](CC(C)C)C(=O)N(C)[C@@H](C)C(=O)N[C@@H](CC(C)C)C(=O)N2CCC[C@@H]2C(=O)O[C@@H]1C | -4.99 |
| CC(=O)N1CCC[C@@H]1C(=O)N(C)[C@@H](CC(C)C)C(=O)N[C@@H]1C(=O)N[C@@H](CC(C)C)C(=O)N(C)[C@H](CC(C)C)C(=O)N[C@@H](CC(C)C)C(=O)N(C)[C@H](C)C(=O)N[C@H](CC(C)C)C(=O)N2CCC[C@@H]2C(=O)O[C@@H]1C | -5.19 |

Data: CycPeptMPDB; original report Kelly et al. 2021, doi:10.1021/jacs.0c06115.